Where two headings read alike, the source gives them in different places.
How the values were obtained:
[1] = molecular target: truncated human beta-secretase (residues 1-458, His6-tagged at the C-terminus) (Homo sapiens (Human), UniProt P56817); assay: BACE enzyme assay (fluorescence quench assay, Example 434A); format: biochemical
[2] = molecular target: H4 neuroglioma cell line stably expressing APP with the KM-NL Swedish mutation (H4-APPsw); soluble Amyloid Beta 1-40 (Aβ 1-40) (Homo sapiens (Human), UniProt P56817); assay: BACE cell assay: soluble Aβ 1-40 in culture media of H4-APPsw cells (AlphaLISA/ELISA); format: cell-based; conditions: in vitro cell activity; H4-APPsw cells treated overnight, secreted Aβ 1-40 in culture media

CN1OC2(N=C1N)c1cc(-c3cccc(C#N)c3)ccc1CC21CCc2ccccc2C1 (stereo not drawn) [Compound 45, 3-(spiro[spiro[2,3-dihydro-indene-2,2′-tetrahydronaphthalene]-1,5′-(3-amino-2-methyl-2H-[1,2,4]oxadiazole)]-6-yl)benzonitrile]
IC50 [1]: 195 nM | IC50 [2]: < 5000 nM

CN1O[C@]2(N=C1N)c1cc(-c3cccc(C#N)c3)ccc1C[C@]21CCc2ccccc2C1 [Compound 60]
IC50 ([1]; footnote a: protocols described in Example 434A): 1860 nM

Source: patent publication US8633212B2, “Inhibitors of beta-secretase” (Vitae Pharmaceuticals, Inc., priority 2009, dated 2014)
